The data set has as its system HEp-2 cells. The data set can be described thus: Cytotoxicity assay, neutral red uptake. The format is cell-based. The note with it: HEp-2 monolayer, 48 h, 37 °C, OD 540 nm, Table 5. As for the experimental part:
Different concentrations of the peptides (with 0.1 mL/well), properly diluted in a maintain medium were used for the inoculation of monolayer cells in 96-well plates (Costar®, Corning Inc., Kennebunk, ME, USA). A humidified atmosphere at 37 °C and 5% CO2 for 48 h was used for the incubation of the cells. The following procedures were used after a microscopic evaluation: (1) The maintenance medium containing the test compound was removed and the cells were washed; (2) 0.1 mL of maintenance medium supplemented with 0.005% neutral red dye was added to each well; (3) the cells were incubated for a long time (3 h) at 37 °C. […] The optical density (OD) of each well was read at 540 nm using a microplate reader (Biotek Organon, West Chester, PA, USA).

Structures are written as SMILES.

Regarding `NC(=O)c1ncn([C@@H]2O[C@H](CO)[C@@H](O)[C@H]2O)n1` [Ribavirin], the “Cytotoxicity CC50 in HEp-2 Cells” value amounted to 2103 µM/mL.

For the origin of these results see publication PMC9332204, “Study of Novel Peptides for Antimicrobial Protection in Solution and on Cotton Fabric” (Molecules, 2022).
